Target: Human opiate κ receptors (Homo sapiens, UniProt P41145)
Test: κ opioid receptor functional assay, [35S]GTPγS binding (assay C)
Assay type: biochemical
Conditions: read-out: GTPγS EC50, κ opioid functional activity, human recombinant κ receptors in HEK-293 membranes, EC50 grouped in three classes

The chains behind the UniProt entries cited, without tags or fusion partners.
UniProt P41145, whole entry: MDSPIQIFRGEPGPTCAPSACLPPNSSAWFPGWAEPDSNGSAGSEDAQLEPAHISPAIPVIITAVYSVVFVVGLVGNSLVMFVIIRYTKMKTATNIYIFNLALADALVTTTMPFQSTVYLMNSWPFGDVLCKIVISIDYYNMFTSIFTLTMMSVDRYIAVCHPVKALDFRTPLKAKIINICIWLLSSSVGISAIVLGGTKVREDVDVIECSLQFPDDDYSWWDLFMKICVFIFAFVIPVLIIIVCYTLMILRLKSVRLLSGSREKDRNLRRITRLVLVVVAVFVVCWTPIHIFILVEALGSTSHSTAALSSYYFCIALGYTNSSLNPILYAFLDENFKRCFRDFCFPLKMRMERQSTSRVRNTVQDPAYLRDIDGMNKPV

SMILES | EC50 [µM]
COC(=O)c1ccc(C(=O)N2CCN(C(=O)Cc3ccc(Cl)c(Cl)c3)C3C(N4CCCC4)CCCC32)cc1 (racemic) | 0.01 to 0.1
COC(=O)c1ccc(C(=O)N2CCN(C(=O)Cc3ccc(Cl)c(Cl)c3)C3C(N4CCCC4)CCCC32)nc1 (racemic) | 0.01 to 0.1
COC(=O)c1cccc(C(=O)N2CCN(C(=O)Cc3ccc(Cl)c(Cl)c3)C3C(N4CCCC4)CCCC32)c1 (racemic) | 0.01 to 0.1
NC(=O)c1ccc(C(=O)N2CCN(C(=O)Cc3ccc(Cl)c(Cl)c3)C3C(N4CCCC4)CCCC32)cc1 (racemic) | 0.01 to 0.1
O=C(c1ccccn1)N1CCN(C(=O)Cc2ccc(Cl)c(Cl)c2)C2C(N3CCCC3)CCCC21 (racemic) | < 0.01
O=C(c1ccco1)N1CCN(C(=O)Cc2ccc(Cl)c(Cl)c2)C2C(N3CCCC3)CCCC21 (racemic) | < 0.01
O=C(c1cccs1)N1CCN(C(=O)Cc2ccc(Cl)c(Cl)c2)C2C(N3CCCC3)CCCC21 (racemic) | < 0.01

— US20160122307A1, “PERHYDROQUINOXALINE DERIVATIVES” (DR. AUGUST WOLFF GMBH & CO. KG ARZNEIMITTEL, priority 2013, published 2016)
